Experimental data published in patent US12116397B2, “IL-IR-I binding polypeptide” (Swedish Orphan Biovitrum AB (publ), dated 2024).

Columns and labels:
Assay in all cases: cell-based or functional assay
[1] = biological target: IL-1R-I on human cells (Normal Human Dermal Fibroblasts; human whole blood) (human, UniProt P14778)
IL-1R-I on TF-1 cells = IL-1R-I on TF-1 cells (Homo sapiens (Human), UniProt P14778)
[2] = biological target: human IL-1R-I on Normal Human Dermal Fibroblasts (NHDF) cells (human, UniProt P14778)

Row | Binder | median IC50, inhibition of IL-1β induced IL-6 release in human whole blood [1] | median IC50, inhibition of IL-1β induced IL-6 release in human whole blood (figure legend) [1] | IC50, inhibition of IL-1β induced proliferation of TF-1 cells (IL-1R-I on TF-1 cells) | IC50 of inhibition of IL-1β induced IL-6 release in NHDF cells [2]
1 | anakinra (Kineret) (other) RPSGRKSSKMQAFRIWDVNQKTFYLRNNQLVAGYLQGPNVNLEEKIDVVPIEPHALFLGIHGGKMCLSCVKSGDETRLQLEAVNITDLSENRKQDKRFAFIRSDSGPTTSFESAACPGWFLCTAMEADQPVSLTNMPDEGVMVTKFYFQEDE | 0.31 nM | 0.3 nM | 0.05 nM | –
2 | anakinra (ligand) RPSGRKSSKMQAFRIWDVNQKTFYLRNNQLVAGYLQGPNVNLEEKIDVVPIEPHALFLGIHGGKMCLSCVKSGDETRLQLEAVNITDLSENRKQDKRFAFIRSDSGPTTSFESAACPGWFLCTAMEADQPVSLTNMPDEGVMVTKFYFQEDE | – | – | – | 0.07 nM
